The subject of the series is hepatitis C. To be noted: human, in vivo.

The structures appear in SMILES notation.

Data on 1 molecule can be found in patent publication US20090221708A1, “Medicinal preparation” (priority 2004, published 2009).

Consider `Cc1cc(Cl)ccc1OCC(=O)O` [4-chlorine-2-methyl phenoxyacetic acid], for which the BKS turned out to be 24 mm/h, the Creatine stood at 0.35 mg/dL, the Eosinophiles was found to be 4.0% and the Erythrocytes is recorded as 4.3 1 × 10^12/l. The Glucose was determined as 5.9 mmol/L, the Haemoglobin was found to be 123 g/L, the Haemoglobin index is 1.0 and the Leucocytes is recorded as 4.7 1 × 10^9/l. In addition, the Lymphocytes is recorded as 23%, the Monocytes worked out at 4.0%, the “Neutrophiles: Segment core” value is 68% and the “Neutrophiles: Standard bar core” value came out at 4.9%. The Potassium stood at 4.2 mmol/L; the Protein was found to be 7.1 g/dL; the Sodium amounted to 143 mmol/L; the “Thrombocytes, absolute” value worked out at 127 Tsd. The molecule further returned a Urea of 44.0 mg/dL and a Uric acid of 6.8 mg/dL.
